This is an account of results in ChEMBL document CHEMBL3272314, “Sturcture-activity relationship of daunorubicin and its peptide derivatives” (J Med Chem, 1976).

The structures appear in SMILES notation.

Test [1] relates to Salmonidae. As to the kind of experiment: Binding affinity to salmon sperm DNA assessed as first order dissociation rate at pH 7.8 by stop-flow technique in presence of 21 mM Na+ relative to pH 6.2.
In test [2] the test system is Salmonidae. As to the kind of experiment: Binding affinity to salmon sperm DNA assessed as first order dissociation rate at pH 7.8 by stop-flow technique in presence of 201 mM Na+ relative to 1 mM Na+ ionic strength.
In test [3] the test system is Salmonidae. Put plainly: Binding affinity to salmon sperm DNA assessed as first order dissociation rate at pH 7.8 by stop-flow technique in presence of 201 mM Na+ relative to daunorubicin complex.

For the compound `COc1cccc2c1C(=O)c1c(O)c3c(c(O)c1C2=O)C[C@@](O)(C(C)=O)C[C@@H]3O[C@H]1C[C@H](NC(=O)CNC(=O)CN(C)C)[C@H](O)[C@H](C)O1`, the Ratio was found to be 1.25 in the test on Salmonidae [1], 4.98 in the test with Salmonidae [2] and 5.35 in the test on Salmonidae [3].

Consider `CCCN(CCC)CC(=O)N[C@H]1C[C@H](O[C@H]2C[C@](O)(C(C)=O)Cc3c(O)c4c(c(O)c32)C(=O)c2c(OC)cccc2C4=O)O[C@@H](C)[C@H]1O`, for which the values for the Ratio in the test with Salmonidae [1], with Salmonidae [2] and in the test with Salmonidae [3] were 1.24, 5.75 and 5.9, respectively.

As for `COc1cccc2c1C(=O)c1c(O)c3c(c(O)c1C2=O)C[C@@](O)(C(C)=O)C[C@@H]3O[C@H]1C[C@H](NC(=O)CN(C)C)[C@H](O)[C@H](C)O1`, the Ratio in the test on Salmonidae [1] was 1.37; with Salmonidae [2] it was 4.33; with Salmonidae [3] it was 4.06.
